Assay results published in ChEMBL document CHEMBL1136834 (Bioorg Med Chem Lett, 2009).

Sequences of proteins named here, by UniProt entry; tags and fusion partners are left off. A change or cut given only in a name is not applied to a line headed by its entry.
UniProt P41145: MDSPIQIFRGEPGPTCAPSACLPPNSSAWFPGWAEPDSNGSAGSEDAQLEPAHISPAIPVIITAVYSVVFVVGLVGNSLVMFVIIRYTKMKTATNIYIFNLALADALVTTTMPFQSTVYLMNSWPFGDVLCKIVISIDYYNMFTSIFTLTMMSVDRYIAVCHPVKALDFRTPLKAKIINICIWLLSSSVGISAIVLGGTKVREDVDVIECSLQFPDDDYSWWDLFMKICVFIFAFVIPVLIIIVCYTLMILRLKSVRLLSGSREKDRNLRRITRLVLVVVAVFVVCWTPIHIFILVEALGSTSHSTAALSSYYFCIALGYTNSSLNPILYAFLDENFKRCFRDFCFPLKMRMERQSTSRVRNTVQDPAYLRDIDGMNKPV

biological target: Kappa-type opioid receptor (Homo sapiens, UniProt P41145); experiment: Agonist activity at human kappa opioid receptor expressed in CHO cells assessed as stimulation of [35S]GTPgammaS binding relative to basal [35S]GTPgammaS binding; assay type: functional, cell-based

| Compound | Emax |
| --- | --- |
| C[C@H]1C2Cc3cc4nc[nH]c4cc3[C@@]1(C)CCN2CC1CC1 | 69% |
| C[C@H]1C2Cc3ccc4[nH]nnc4c3[C@@]1(C)CCN2CC1CC1 | 65% |
| C[C@H]1C2Cc3cc4nn[nH]c4cc3[C@@]1(C)CCN2CC1CC1 | 110% |
| Cc1nc2cc3c(cc2[nH]1)[C@@]1(C)CCN(CC2CC2)C(C3)[C@@H]1C | 73% |
